From ChEMBL document CHEMBL1155799 (Bioorg Med Chem, 2008)

Amino acid sequences for entries named in this document (tags omitted). A change or cut given only in a name is not applied to a line headed by its entry.
UniProt P35367, whole entry: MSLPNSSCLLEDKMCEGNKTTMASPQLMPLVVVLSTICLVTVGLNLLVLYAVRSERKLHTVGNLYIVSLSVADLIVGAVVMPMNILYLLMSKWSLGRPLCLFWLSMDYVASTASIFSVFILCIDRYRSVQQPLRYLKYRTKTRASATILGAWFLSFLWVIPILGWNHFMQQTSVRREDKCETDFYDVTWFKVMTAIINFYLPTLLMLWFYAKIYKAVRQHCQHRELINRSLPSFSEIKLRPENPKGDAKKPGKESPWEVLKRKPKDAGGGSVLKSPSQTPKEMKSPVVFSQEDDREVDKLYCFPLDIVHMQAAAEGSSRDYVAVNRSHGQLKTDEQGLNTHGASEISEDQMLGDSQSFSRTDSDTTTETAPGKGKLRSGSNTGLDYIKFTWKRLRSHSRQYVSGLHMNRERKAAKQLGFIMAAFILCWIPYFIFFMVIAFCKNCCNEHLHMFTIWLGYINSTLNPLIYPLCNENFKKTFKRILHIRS
UniProt Q63380, whole entry: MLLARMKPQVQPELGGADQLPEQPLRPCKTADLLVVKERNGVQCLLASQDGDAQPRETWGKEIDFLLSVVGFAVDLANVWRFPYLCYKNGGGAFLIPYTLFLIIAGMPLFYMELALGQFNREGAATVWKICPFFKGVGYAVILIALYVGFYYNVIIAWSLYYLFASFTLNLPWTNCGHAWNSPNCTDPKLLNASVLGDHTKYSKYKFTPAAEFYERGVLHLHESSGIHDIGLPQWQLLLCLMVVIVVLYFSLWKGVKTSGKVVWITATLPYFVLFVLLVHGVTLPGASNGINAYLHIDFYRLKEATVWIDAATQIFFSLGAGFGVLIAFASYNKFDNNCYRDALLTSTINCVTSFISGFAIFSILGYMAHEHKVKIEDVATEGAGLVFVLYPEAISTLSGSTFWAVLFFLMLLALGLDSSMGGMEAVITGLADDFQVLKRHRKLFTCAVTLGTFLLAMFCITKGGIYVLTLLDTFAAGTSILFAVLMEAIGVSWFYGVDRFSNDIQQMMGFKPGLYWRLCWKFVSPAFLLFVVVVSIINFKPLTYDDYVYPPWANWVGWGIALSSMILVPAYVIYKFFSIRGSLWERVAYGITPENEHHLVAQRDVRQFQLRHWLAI
UniProt P35462, whole entry: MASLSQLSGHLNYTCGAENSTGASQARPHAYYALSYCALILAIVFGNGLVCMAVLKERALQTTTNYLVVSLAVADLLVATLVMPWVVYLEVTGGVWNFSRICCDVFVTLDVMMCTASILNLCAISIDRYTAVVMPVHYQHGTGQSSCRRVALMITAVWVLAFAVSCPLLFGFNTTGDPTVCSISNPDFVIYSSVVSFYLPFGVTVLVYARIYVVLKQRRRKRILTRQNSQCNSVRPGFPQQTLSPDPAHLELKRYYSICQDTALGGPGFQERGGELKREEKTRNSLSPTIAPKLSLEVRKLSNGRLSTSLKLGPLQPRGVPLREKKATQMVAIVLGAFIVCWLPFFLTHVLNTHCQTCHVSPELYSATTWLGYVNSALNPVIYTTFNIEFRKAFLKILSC
UniProt P21728, whole entry: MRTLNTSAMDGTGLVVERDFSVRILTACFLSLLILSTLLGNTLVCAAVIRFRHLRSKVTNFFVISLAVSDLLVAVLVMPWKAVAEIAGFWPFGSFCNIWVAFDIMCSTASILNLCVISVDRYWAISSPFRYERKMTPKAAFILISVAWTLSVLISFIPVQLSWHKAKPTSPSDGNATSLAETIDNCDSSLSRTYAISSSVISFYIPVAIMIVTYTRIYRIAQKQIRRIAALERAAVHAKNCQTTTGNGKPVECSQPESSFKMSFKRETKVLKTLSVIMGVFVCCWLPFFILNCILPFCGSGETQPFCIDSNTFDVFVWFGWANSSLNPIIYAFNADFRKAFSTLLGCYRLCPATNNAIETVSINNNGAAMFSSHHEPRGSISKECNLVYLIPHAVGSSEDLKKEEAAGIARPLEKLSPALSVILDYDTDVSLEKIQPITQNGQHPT
UniProt P28335: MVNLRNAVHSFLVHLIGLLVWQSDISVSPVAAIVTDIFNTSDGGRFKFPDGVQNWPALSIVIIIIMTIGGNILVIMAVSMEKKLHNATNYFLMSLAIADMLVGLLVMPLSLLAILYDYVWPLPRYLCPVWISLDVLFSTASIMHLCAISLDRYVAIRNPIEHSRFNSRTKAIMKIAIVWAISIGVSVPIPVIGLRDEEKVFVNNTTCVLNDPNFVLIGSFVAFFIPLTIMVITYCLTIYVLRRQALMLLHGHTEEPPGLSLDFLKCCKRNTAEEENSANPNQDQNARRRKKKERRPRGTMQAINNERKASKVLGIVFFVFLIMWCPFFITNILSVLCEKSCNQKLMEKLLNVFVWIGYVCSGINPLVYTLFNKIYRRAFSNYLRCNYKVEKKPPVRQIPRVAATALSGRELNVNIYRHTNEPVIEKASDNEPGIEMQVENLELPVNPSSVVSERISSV
UniProt P11229: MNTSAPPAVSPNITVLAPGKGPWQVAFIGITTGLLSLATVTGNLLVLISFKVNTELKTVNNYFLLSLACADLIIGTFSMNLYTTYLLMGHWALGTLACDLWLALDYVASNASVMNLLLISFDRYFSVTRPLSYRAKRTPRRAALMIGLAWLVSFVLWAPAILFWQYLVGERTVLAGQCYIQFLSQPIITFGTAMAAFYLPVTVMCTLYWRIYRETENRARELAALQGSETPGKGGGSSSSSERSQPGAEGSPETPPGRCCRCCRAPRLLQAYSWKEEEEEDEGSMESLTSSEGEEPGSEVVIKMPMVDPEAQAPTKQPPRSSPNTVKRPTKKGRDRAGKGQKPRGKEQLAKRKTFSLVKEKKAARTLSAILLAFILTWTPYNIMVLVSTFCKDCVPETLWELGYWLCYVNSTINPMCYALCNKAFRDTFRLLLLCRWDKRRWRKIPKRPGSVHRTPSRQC
UniProt P08908, whole entry: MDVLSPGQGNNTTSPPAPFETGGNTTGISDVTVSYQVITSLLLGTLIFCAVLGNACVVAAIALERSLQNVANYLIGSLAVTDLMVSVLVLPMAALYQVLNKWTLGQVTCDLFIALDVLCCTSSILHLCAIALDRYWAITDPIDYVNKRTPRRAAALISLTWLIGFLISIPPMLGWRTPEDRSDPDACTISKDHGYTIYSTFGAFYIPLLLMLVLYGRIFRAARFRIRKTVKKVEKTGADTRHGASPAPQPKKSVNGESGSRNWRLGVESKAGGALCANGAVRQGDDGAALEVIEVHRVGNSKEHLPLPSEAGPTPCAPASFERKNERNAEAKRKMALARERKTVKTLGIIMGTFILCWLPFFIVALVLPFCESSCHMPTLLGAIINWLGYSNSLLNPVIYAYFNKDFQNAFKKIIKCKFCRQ
UniProt P28223, whole entry: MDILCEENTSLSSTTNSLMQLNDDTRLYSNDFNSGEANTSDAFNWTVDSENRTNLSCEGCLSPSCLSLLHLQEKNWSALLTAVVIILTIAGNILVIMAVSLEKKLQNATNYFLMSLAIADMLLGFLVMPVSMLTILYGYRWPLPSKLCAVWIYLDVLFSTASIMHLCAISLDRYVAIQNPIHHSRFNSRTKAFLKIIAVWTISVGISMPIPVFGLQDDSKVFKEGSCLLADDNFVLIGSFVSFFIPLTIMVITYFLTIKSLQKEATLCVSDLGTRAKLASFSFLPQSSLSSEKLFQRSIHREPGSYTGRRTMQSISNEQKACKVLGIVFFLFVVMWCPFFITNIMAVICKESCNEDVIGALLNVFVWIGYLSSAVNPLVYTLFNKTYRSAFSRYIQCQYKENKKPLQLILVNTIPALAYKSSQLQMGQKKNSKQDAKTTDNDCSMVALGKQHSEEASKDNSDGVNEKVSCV
UniProt P21917, whole entry: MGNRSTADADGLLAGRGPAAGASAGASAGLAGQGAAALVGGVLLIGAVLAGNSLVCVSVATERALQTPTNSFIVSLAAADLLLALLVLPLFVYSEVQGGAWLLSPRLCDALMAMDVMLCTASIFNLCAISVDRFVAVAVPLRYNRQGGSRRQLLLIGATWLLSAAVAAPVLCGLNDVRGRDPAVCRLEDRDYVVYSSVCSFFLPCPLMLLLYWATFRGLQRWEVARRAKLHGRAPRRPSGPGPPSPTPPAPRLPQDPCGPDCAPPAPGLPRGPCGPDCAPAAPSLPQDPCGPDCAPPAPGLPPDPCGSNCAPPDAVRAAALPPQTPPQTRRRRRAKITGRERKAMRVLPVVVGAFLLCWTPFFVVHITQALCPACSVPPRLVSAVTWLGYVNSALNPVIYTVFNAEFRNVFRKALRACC

Experiments:
[1] = target: Histamine H1 receptor (Homo sapiens, UniProt P35367)
[2] = target: Transporter (Rattus norvegicus, UniProt Q63380)
[3] = target: D(3) dopamine receptor (Homo sapiens, UniProt P35462)
[4] = target: D(1A) dopamine receptor (Homo sapiens, UniProt P21728)
[5] = target: 5-hydroxytryptamine receptor 2C (Homo sapiens, UniProt P28335)
[6] = target: Muscarinic acetylcholine receptor M1 (Homo sapiens, UniProt P11229)
[7] = target: 5-hydroxytryptamine receptor 1A (Homo sapiens, UniProt P08908)
[8] = target: 5-hydroxytryptamine receptor 2A (Homo sapiens, UniProt P28223)
[9] = target: D(4) dopamine receptor (Homo sapiens, UniProt P21917)

## O=C(CCCN1C2CCC1CC(O)(c1ccccc1)C2)c1ccc(F)cc1 (stereo not given)
[1]
  Ki: 635 nM

## O=C(CCCN1CCN(c2ccc(Cl)cc2)CC1)c1ccc(F)cc1
[1]
  Ki: 158 nM

## O=C(CCCN1CCCN(c2ccc(Cl)cc2)CC1)c1ccc(F)cc1
[2]
  Ki: 851 nM
[3]
  Ki: 159 nM
[4]
  Ki: 163 nM
[5]
  Ki: 1420 nM
[1]
  Ki: 189 nM
[6]
  Ki: 872 nM
[7]
  Ki: 117 nM
[8]
  Ki: 23.6 nM

## O=C(CCCN1CCN(c2ncccn2)CC1)c1ccc(F)cc1
[3]
  Ki: 244 nM
[9]
  Ki: 6.53 nM
[5]
  Ki: 4130 nM
[1]
  Ki: 912 nM
[7]
  Ki: 30.5 nM
[8]
  Ki: 22 nM

## O=C1Cc2cc(CCN3CCN(c4nsc5ccccc45)CC3)c(Cl)cc2N1 [ZIPRASIDONE]
[2]
  Ki: 48 nM

## O=C(CCCN1C2CCC1CN(c1ccc(Cl)cc1)CC2)c1ccc(F)cc1 (stereo not given)
[3]
  Ki: 548 nM
[1]
  Ki: 1010 nM

## O=C(CCCN1C2CCC1CC(c1ccccc1)C2)c1ccc(F)cc1 (stereo not given)
[1]
  Ki: 974 nM
